{"source": "patent US8518968B2", "about": "“Hydrazone and diacyl hydrazine compounds and methods of use” (The United States of America, as represented by the …, priority 2009, dated 2013)", "test_system": "JEKO-1 cells", "assay": "Cytotoxic activity against JEKO-1 cells (MTT cell viability)", "details": "incubated 2 days, four parameter logistic fit", "note": "pIC50: −log10 of the molar value."}
{"smiles": "O=C(N/N=C/C=C/c1ccc([N+](=O)[O-])o1)c1cc([N+](=O)[O-])cc([N+](=O)[O-])c1O", "values": [{"measurement": "pIC50", "value": 4.52}]}
